Test results published in patent US20220218837A1, “DRUG CONJUGATE” (priority 2018, published 2022).

Assays:
JIMT-1 cells (HER2+/-) = experiment: Cell killing / cell viability, JIMT-1 cells; format: cell-based, human; conditions: titrated + fixed 10 pM CD71mab-saporin
HSP27 mRNA = experiment: A431 xenograph 'nude' mouse tumor model, HSP27 gene expression in tumors; format: in vivo; conditions: for reduction in HSP27 mRNA/gene expression in the tumors: compared to single dosing of cetuximab-SO1861 or cetuximab-HSP27BNA mono therapies
Procedure: This scaffold comprising conjugate was tested in a A431 xenograph ‘nude’ mouse tumor model for EGFR-mediated tumor targeted gene silencing activity. Dosings started at day 12 when tumors reached ˜170 mm^3 in size and tumor samples were collected at 72h after the first dosing and analysed for HSP27 gene expression compared to cellular control mRNA expression (reference genes).
Dosing started at day 12 when tumors reached ˜150 mm^3 in size and HSP27 mRNA expression was determined. For this, tumor samples were collected at 72h after the first dosing and analysed for HSP27 gene expression levels compared to cellular control mRNA expression levels (reference genes). […] Dosings started at day 12 when tumors reached ˜150 mm^3 in size and HSP27 mRNA expression was determined. For this, tumor samples were collected at 72h after the first dosing and analysed for HSP27 gene expression levels compared to cellular control mRNA expression levels (reference genes).
Dosings started at day 12 when tumors reached ˜150 mm^3 in size and tumor samples were collected at 72h after the first dosing and analysed for HSP27 gene expression compared to control gene mRNA expression levels (reference genes). […] Compared to the vehicle control tumors, a reduction of 40% HSP27 gene silencing was observed.
Dosing started at day 12 when tumors reached ˜150 mm^3 in size and HSP27 mRNA expression was determined. For this, tumor samples were collected at 72h after the first dosing and analysed for HSP27 gene expression levels compared to cellular control mRNA expression levels (reference genes).

[1] = tested on: MDA-MB-468 cells (EGFR++/HER2-/CD71+); experiment: Cell killing / cell viability, MDA-MB-468 cells; format: cell-based, human

“trastuzumab-Lys-(dendron(-L-SO1861)^4)^4,7: dendron(-L-SO1861)^4 conjugated to lysines of trastuzumab” was tested, and the IC50 cell killing (JIMT-1 cells (HER2+/-)) was “no cell killing activity could be observed”.

In the case of “cetuximab-Cys-(SO1861-L-trifunctional linker-L-HSP27BNA)^3′^7”, the “reduction in HSP27 gene expression in the tumors” value (HSP27 mRNA; 1 dosing of 25 mg/kg, 72h, compared to the vehicle control tumors) is reported as 25%, the “reduction in HSP27 gene expression in the tumors” value (HSP27 mRNA; 1 dosing of 25 mg/kg, tumors sampled 72h after first dosing, compared to single dosing of cetuximab-(Cys-L-SO1861)^3,8 or cetuximab-(Lys-L-HSP27BNA)^4 mono therapies) is reported as 40% and the “reduction in HSP27 mRNA/gene expression in the tumors” value (HSP27 mRNA; 1 dosing of 30 mg/kg, 72h) is reported as 40%.

“cetuximab-(Cys-L-SO1861)^3,9(Lys-L-HSP27BNA)^1,8: cetuximab with SO1861-EMCH on Cys (DAR 3,9) and HSP27BNA via labile linker on Lys (DAR 1,8)” was tested, and the “reduction in HSP27 mRNA/gene expression in the tumors” value (HSP27 mRNA; 1 dosing of 30 mg/kg, 72h) was 40% and the “reduction in HSP27 gene expression in the tumors” value (HSP27 mRNA; 1 dosing of 30 mg/kg, 72h, compared to vehicle control) was 25%.

For “Cetuximab-Lys-(dendron(-L-SO1861)^4)^4,4: dendron(-L-SO1861)^4 conjugated to lysines of cetuximab”, the “cell killing activity (words)” value ([1]; substance alone, no partner) was “not induced”.

For “cetuximab-Cys-(dendron(-L-SO1861)^4)^3,9: Dendron(-L-SO1861)^4 conjugated to cetuximab via cysteine residues”, the IC50 cell killing ([1]; titrated + fixed 10 pM CD71mab-saporin) was “strong enhancement of the cell killing activity”.
